Patent US20260209193A1, “NOVEL INHIBITORS OF DNA DAMAGE RESPONSES FOR CANCER THERAPY” (The Regents of the University of California, priority 2022, published 2026)

Chains of the proteins cited; added tags and fusions are not shown.
UniProt P09874, whole entry, species assumed: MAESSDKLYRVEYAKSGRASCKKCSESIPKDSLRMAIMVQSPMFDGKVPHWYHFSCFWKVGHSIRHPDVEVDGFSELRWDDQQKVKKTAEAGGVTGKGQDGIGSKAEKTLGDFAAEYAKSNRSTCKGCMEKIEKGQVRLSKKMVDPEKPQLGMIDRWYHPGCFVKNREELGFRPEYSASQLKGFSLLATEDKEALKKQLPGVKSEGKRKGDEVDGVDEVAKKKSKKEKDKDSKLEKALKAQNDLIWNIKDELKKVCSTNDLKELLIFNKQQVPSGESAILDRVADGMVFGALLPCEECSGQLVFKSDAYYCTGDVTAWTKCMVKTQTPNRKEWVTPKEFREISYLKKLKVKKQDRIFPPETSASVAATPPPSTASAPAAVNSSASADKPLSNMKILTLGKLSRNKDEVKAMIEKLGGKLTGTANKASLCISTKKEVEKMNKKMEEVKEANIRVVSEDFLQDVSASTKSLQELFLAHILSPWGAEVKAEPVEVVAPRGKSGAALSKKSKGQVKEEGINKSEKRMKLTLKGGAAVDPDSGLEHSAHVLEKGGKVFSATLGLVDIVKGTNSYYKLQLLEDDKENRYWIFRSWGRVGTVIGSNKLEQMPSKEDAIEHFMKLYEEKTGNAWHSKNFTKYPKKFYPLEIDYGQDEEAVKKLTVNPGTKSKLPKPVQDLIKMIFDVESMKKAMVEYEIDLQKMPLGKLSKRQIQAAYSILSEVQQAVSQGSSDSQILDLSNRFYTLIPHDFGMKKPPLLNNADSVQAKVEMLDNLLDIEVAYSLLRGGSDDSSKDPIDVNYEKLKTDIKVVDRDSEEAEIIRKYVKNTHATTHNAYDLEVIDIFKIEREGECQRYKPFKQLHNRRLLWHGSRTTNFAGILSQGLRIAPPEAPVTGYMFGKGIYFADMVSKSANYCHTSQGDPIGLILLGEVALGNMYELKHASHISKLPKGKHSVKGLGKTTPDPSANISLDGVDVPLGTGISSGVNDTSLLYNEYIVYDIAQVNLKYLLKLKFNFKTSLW

Biological target: T1, PARP1 (Homo sapiens, UniProt P09874)
T1 construct: endogenous in cells; host or cells: PC3
Test: PARP1 trapping, chromatin fractionation (chromatin-bound fraction)
Format: cell-based
Settings: HR-deficient SUM149PT-BRCA1mut, UWB1, C4-2B/MR compared with HR-proficient SUM149PT-BRCA1rev, UWB1+BRCA1, PC3; 0.01% MMS
Excerpt: The trapped PARP1 forms a toxic lesion and stalls the progress of replication forks. The replication fork collapses in BRCA1/2-deficient cancer cells, and then results in cell death. […] Six cancer cell lines were used in this assay, including two breast cancer cell lines, BRCA1-mutunt SUM149PT-BRCA1mut and SUM149PT-BRCA1rev where deleterious BRCA1 mutation is reverted to form a functional BRCA1, two ovarian cancer cell lines, BRCA1-null UWB1.289 and UWB1.289+BRCA1, a stable cell line in which wild-type BRCA1 function has been restored, and two prostate cancer cell lines, enzalutamide resistant C4-2B/MR which is homologous recombination (HR)-deficient due to Rad51 mutation, and enzalutamide insensitive PC3 which is HR-proficient.

Which “accumulation of PARP1 protein in the chromatin-bound fraction” value does the source give for Cn1ncnc1[C@H]1c2n[nH]c(=O)c3cc(F)cc(c23)N[C@@H]1c1ccc(F)cc1 [TALA, Talazoparib, reference compound] here?
The value was “greatly increased accumulation of PARP1 protein in the chromatin-bound fraction”.
